In general, inhibition refers to the change of the read-out against control, counted positive when it falls.

The chains behind the UniProt entries cited, without tags or fusion partners.
UniProt O75030, whole entry: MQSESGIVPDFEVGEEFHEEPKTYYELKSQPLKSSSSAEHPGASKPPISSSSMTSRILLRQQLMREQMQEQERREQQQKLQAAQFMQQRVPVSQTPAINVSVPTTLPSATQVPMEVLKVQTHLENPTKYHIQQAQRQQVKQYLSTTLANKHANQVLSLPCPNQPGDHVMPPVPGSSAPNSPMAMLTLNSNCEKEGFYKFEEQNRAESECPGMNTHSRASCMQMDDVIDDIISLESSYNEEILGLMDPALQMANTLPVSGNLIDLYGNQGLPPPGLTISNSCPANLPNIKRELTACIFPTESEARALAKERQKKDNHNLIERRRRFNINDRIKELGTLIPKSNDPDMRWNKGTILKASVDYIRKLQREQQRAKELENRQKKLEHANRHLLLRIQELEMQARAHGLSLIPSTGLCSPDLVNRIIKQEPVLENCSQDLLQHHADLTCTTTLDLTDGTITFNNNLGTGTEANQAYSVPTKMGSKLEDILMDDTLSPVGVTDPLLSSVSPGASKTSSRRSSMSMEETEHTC

One molecule from PubChem BioAssay AID1259374 (The Scripps Research Institute Molecular Screening Center, 2018) can be followed below.

Each structure is given as a SMILES string. This is a selection; strong and weak results do not stand in their true shares. The source made the active and inactive calls. Rule as the data show it: active = inhibition above about 50%; inactive = the rest.

The target in the test is Microphthalmia-associated transcription factor (Homo sapiens) (UniProt O75030). Briefly: MITF inhibitors, primary screen, biochemical, AlphaScreen, human (AID 1259374).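 Also: 0% = vehicle wells with protein.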 Conditions: AlphaScreen MITF homodimerization, bead proximity signal; at 2.6 µM; active compounds read high. For orientation: In Alpha technology, singlet oxygen from a donor bead excites a nearby acceptor bead.
`CN(CCCl)CCCl`: the inhibition is inactive: -16.7%.
